Results as given in patent US20240208895A1, “BRANCHED-CHAIN AMINO ACID DERIVATIVES TO TREAT DISEASE” (INTRABIO LTD., priority 2021, published 2024).
Where two headings read alike, the source gives them in different places.

What was measured:
[1] = Procedure: (§1) A Compound of the Disclosure is incubated at 1 μM, 10 μM and 100 μM with pooled liver S9 fractions from human (mixed gender) and mouse (CD1) at 1.5 mg/mL in 300 μL buffer containing phosphate 100 mM, MgCl2 2 mM, pH 7.4 at 37° C. for 0, 10, 20, 40, 60 min.
(§2) Enzyme kinetic data for uptake and metabolism of a Compound of the Disclosure is analysed by fitting the Michaelis-Menten equation to the data. V0=Vmax[S]/Km+[S], where V0 is initial velocity, [S] is substrate concentration, Vmax is maximum velocity and Km is substrate concentration at half Vmax. All fitting is performed using GraphPad Prism 8.4 software (GraphPad Software Inc). No weighting scheme is applied.

[2] = remark: listed apart in the source
Procedure: as §1, §2

Km [1]: 216 µM
Km [2]: 69 µM
SMILES: CC(=O)NC(CC(C)C)C(=O)O (racemic) [N-acetyl-DL-[^2H10]leucine]
